Entries after “also recorded” stand apart in the source; their conditions may differ.
Legend:
Type in all cases: cell-based
[1] = system: neurosphere (neural stem cells and/or neural progenitor cells induced from human pluripotent stem cells); test: Functional evaluation of human serum albumin: morphology of neurospheres after 14 days' suspension culture; details: 14 days' culturing; for morphology of the neurosphere formed: microscope
Experimental: Media hormone mix (MHM) medium added with B27 supplement (1x; Life Technologies), bFGF (PeproTech inc.), hLIF (Millipore), Y27632 (Wako Pure Chemical Industries, Ltd.) was produced, and iPS cells dispersed in TrypLE™ Select to single cells were cultured in suspension in the medium under 37° C., 5% CO2, 4% O2 environment. The medium was exchanged every 7 days. After culturing, neural stem cells and/or neural progenitor cells formed neurosphere which is a spherical cell aggregate.
Media hormone mix (MHM) medium (Life Technologies) added with B27 supplement (1×; Life Technologies), bFGF (final concentration 20 ng/mL; PeproTech inc.), hLIF (final concentration 10 ng/mL; Millipore) was produced, and neural stem cells and/or neural progenitor cells induced from human pluripotent stem cells were cultured in suspension in the medium under 37° C., 5% CO2, 4% O2 environment. The medium was exchanged every 7 days. After culturing, neural stem cells and/or neural progenitor cells formed neurosphere which is a spherical cell aggregate.
TrypLE Select (Life Technologies) was used for passaging the neurosphere. The medium was removed from the culture dish during neurosphere culture and replaced with TrypLE Select. The cells were incubated in TrypLE Select at 37° C. for 10 min, and thereafter pipetted to give single cells. The dispersed cells were seeded in the above-mentioned medium at 1.0×10^5 cells/mL, and cultured in suspension in the medium under 37° C., 5% CO2 environment.
Using the neurosphere cultured in (2), functional evaluation of the medium was performed. Media hormone mix (MHM) medium (Life Technologies) added with bFGF (final concentration 20 ng/mL) and hLIF (final concentration 10 ng/mL) was produced and used as a test basal medium. Neurosphere was cultured in the test basal medium added with human serum albumin (Essentially fatty acid free (−0.005%), Sigma Aldrich) at a final concentration of 0.2, 1 or 2.1 mg/mL (human serum albumin-added medium) or a medium without the addition (control medium), and functional evaluation of the human serum albumin was performed. The medium was exchanged every 7 days and, after 14 days' culturing, the morphology of the neurosphere formed was observed under a microscope. (Before the start of the culture in (3), the medium used before culturing in (3) was sufficiently diluted and removed to reduce incorporation of the medium as much as possible.)

[2] = system: neurosphere derived from human pluripotent stem cells; test: Differentiation induction into nerve cells of neurospheres cultured in human serum albumin-added medium, βIII tubulin immunostaining; details: neurosphere cultured 14 days in 2.1 mg/mL human serum albumin-added medium, then 20 days differentiation induction culture
Experimental: Similar to Example 1, neurosphere derived from human pluripotent stem cells was cultured in 2.1 mg/mL human serum albumin-added medium for 14 days, and differentiation induction culture was performed. For the differentiation induction culture, the neurosphere cultured in human serum albumin-added medium was subjected to a dispersion treatment. TrypLE Select (Life Technologies) was used for the dispersion treatment. The medium was removed from the culture dish during neurosphere culture and replaced with TrypLE Select. The cells were incubated in TrypLE Select at 37° C. for 10 min, and thereafter pipetted to give single cells. The number of the cells was measured using a hemocytometer. The dispersed cells were seeded in a 48 well plate, coated with poly-L-ornithine/fibronectin, at 1.5×10^5 cells/well, and cultured in Media hormone mix (MHM) medium (Life Technologies) added with B27 supplement (1×; Life Technologies) for 20 days. Culturing was performed under 37° C., 5% CO2 environment, and the medium was exchanged every two days.
After culturing, the cells were fixed and immunostained using antibody against βIII tubulin as a nerve cell marker.

[3] = system: LtNES cells induced from human pluripotent stem cells; test: Functional evaluation of human serum albumin: cell number of LtNES cells after culture; details: 4 to 5 days' culturing
Experimental: EB was formed from iPS cells, and cultured in a medium obtained by adding transferrin (final concentration 0.5 to 10 μg/ml) and ethanolamine (final concentration 5 to 50 μM) to a medium corresponding to a composition of E6 medium (Life Technologies or STEMCELL Technologies) without ascorbic acid and transferrin for 4 days. EB was seeded in a dish coated with poly-L-ornithine (PO), cultured for about 10 days in the above-mentioned medium, and formation of a rosette-like structure was confirmed. The rosette part was removed, and subjected as neurosphere to suspension culture in the above-mentioned medium for about 7 days. The neurosphere was dispersed in trypsin/EDTA, and cultured in the above-mentioned medium on a dish coated with PO/laminin to give LtNES cells. The LtNES cells are composed of a mixture of neural stem cells and neural progenitor cells.
Transferrin (final concentration 0.5 to 10 μg/ml), ethanolamine (final concentration 5 to 50 μM) and bFGF (final concentration 5 to 100 ng/ml) were added to a medium corresponding to a composition of E6 medium (Life Technologies or STEMCELL Technologies) without ascorbic acid and transferrin to produce a test basal medium.
Albumin derived from human serum (Sigma Aldrich) was added to the test basal medium at a final concentration of 0, 0.21, 1, 2.1 mg/ml to give test media.
Using each test medium, LtNES cells (1.5×10^5 cells) induced from human pluripotent stem cells were cultured. The cells were cultured in an incubator at 37° C., 5% CO2 atmosphere. The medium was exchanged every two days, and the cells were cultured for 4 to 5 days. After culturing, cell dispersion treatment was performed by adding TrypLE Select instead of the test medium and then incubating it at 37° C. for 1 min. TrypLE Select was diluted with the medium, pipetting was performed to give single cells, and the number of the cells was counted and evaluated. Dead cells were stained with Trypan Blue (Life Technologies Inc.) and the cell number was measured by hemocytometer.

**Q.** Which results are given for human serum albumin?
**A.** morphology of the neurosphere formed ([1]; 0.2 mg/mL human serum albumin in medium): showed a cell form with an elongated protrusion seen in a part of the differentiated cells; also recorded: partly lost a neurosphere-like form; morphology of the neurosphere formed ([1]; 1 mg/mL human serum albumin in medium): maintained the spherical form; also recorded: maintained good neurosphere form; morphology of the neurosphere formed ([1]; 2.1 mg/mL human serum albumin in medium): maintained the spherical form; also recorded: maintained good neurosphere form; differentiation suppressive tendency on the neurosphere ([1]; 0.2, 1, 2.1 mg/mL human serum albumin): concentration-dependent differentiation suppressive tendency; βIII tubulin positive nerve cells after differentiation induction culture [2]: contained many βIII tubulin positive nerve cells; also recorded: Many βIII tubulin (green)-positive nerve cells were observed; cell number (proliferation) of LtNES cells ([3]; 0.21 mg/ml human serum albumin): showed good proliferation; also recorded: showed good growth; cell number (proliferation) of LtNES cells ([3]; 1 mg/ml human serum albumin): cell number increased most; also recorded: number of cells increased most; cell number (proliferation) of LtNES cells ([3]; 2.1 mg/ml human serum albumin): showed good proliferation; also recorded: showed good growth

From patent publication US20180016554A1, “HUMAN SERUM ALBUMIN-CONTAINING CULTURE MEDIUM FOR GROWTH OF NEURAL STEM CELLS” (AJINOMOTO CO., INC., priority 2015, published 2018)
